Assays:
Format in all cases: cell-based
[1] = test system: breast cancer cells (SK-BR-3); assay: C3 deposition on opsonized breast cancer cells (FACS, anti-human C3); conditions: SK-BR-3 cells opsonized in 40% serum
[2] = test system: breast cancer cells (SK-BR-3); assay: Antibody binding to breast cancer cells (FACS, anti-human IgG1); conditions: SK-BR-3 cells
Procedure: (§1) SK-BR-3 cells (ATCC) were cultured in McCoy's 5A Medium (Gibco) supplemented with 10% FBS.
Fluorescence Activated Cell Sorting (FACS) analysis was used to detect Herceptin binding to breast cancer cells (by using anti-human IgG1 antibodies, Sigma) and C3 deposition (by using anti-human C3 antibodies, Accurate Chem.).

[3] = test system: breast cancer cells (SK-BR-3); assay: Cytotoxicity with serum (CytoTox 96, lactate dehydrogenase release); conditions: incubation with serum, LDH release
Procedure: as §1
(§2) Cytotoxicity to breast cancer cells following incubation with β-1,6-glucan-conjugated or unconjugated Herceptin and serum was determined by CytoTox 96® Non-Radioactive Cytotoxicity Assay (Promega), which detects lactate dehydrogenase released from lysed cells. For neutrophil-dependent killing, above cells were cultured with neutrophils at 37° C. after which cytotoxicity was measured.

[4] = test system: breast cancer cells (SK-BR-3); assay: Neutrophil-dependent killing of breast cancer cells; conditions: cells cultured with neutrophils at 37° C.
Procedure: Fresh human blood and serum were provided by Research Blood Components (Brighton, Mass.). Neutrophils were isolated from fresh human blood in accordance with a protocol approved by the MIT Committee on Use of Humans as Experimental Subjects by using Histopaque 1077 and Histopaque 1119 (Sigma).
as §2

Substance: Herceptin conjugated to β-1,3-glucan: Herceptin conjugated to β-1,3-glucan, comparator for C3 deposition
- C3 deposition on breast cancer cells [1]: but not

Substance: Herceptin-β-1,6-glucan conjugate: Herceptin (Genentech) conjugated to β-1,6-glucan following oxidation with sodium meta periodate
- binding to breast cancer cells [2]: did not affect its binding to breast cancer cells
- cytotoxic effect on the breast cancer cells (complement) [3]: dose-dependent cytotoxic effect
- neutrophil killing of the cancer cells [4]: increased neutrophil killing

Substance: unconjugated Herceptin: Herceptin mAb directed against the Her-2/neu protein overexpressed on SK-BR-3 cells [reference compound]
- cytotoxic effect on the breast cancer cells (complement) [3]: lacked any effect
